## Binding of CDR-mutated scFvs to a peptide of the spike HR2 region

Binding partner: SARS-CoV-2 spike HR2 peptide, sequence PDVDLGDISGINAS.

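Phage display of a naive human antibody library on the peptide gave the parent. Variants in AAYL51 differ from the parent at up to three CDR positions; double and triple changes were sampled at random. In AlphaSeq, yeast of one mating type display the scFv and yeast of the other type display the target. Mating (16 h, 30 °C) was followed by selection of diploids and sequencing of their barcodes. A regression on co-assayed BCL2-family reference pairs converts the normalised counts of each replicate to an apparent Kd. There are three technical replicates.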

Ab-91 is the parent antibody, in scFv form: VL, then a 15-residue (Gly4Ser)3 linker, then VH. The light chain is unchanged in all variants.
VL: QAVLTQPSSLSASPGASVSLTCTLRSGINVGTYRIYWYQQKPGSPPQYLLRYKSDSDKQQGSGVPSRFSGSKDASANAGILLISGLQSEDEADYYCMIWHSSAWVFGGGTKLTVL
VH: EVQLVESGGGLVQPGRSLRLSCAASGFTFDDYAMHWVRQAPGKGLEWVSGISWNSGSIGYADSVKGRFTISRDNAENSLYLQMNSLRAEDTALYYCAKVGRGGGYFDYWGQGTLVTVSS

Each variant is given by its three heavy chain CDRs, as the data file delimits them; those of the parent are GFTFDDYAMH, GISWNSGSIGYADSVK, VGRGGGYFDY. Values are log10 of the apparent Kd in nM; lower means stronger binding. Averages over replicates are reported, and they cover detected replicates only. "ND" marks a missing value. The strain was present, yet no cells mated with the target were sequenced in that replicate, which points to weak or no binding.

CDR-H1 | CDR-H2 | CDR-H3 | log10 Kd (nM) by replicate | mean log10 Kd (nM) | signal with controls
GFTFDRYAMH | GISWNSGSIGYADSVK | VGRGGGNADY | 0.63 0.58 -0.08 | 0.38 | 4/9 (4.44)
TPTFDEYAMH | GISWNSGSIGYADSVK | VGRGGGYFDY | 3.63 2.97 4.69 | 3.76 | 2/9 (4.72)
GQTFDDYAMH | GISWNSGSIGYADSVK | VGRGGGYFDY | 5.12 4.79 5.06 | 4.99 | 6/9 (5.22)
AFTFDDYAMH | GISWNSGSLGYADSVK | VGRGGGYLDY | ND ND 5.10 | 5.10 | 3/9 (5.31)
GFTFPDYAMH | GTSWNSGSIGYADAVK | VGRGGGYFDY | 4.21 4.63 4.39 | 4.41 | 3/9 (4.42)
GFTFDDYAMH | GISWNSGSIDYADSVK | VGRQGGYFDY | ND ND ND | ND | 0/9
GFTFDDLAMH | GISWNSGSIGYADSVK | VGRCGGYFYY | 4.55 ND ND | 4.55 | 1/9 (2.64)
GFGFDDYAMH | GISWNSGSIGYAFSVK | VGRGGGGFDY | ND 4.39 4.25 | 4.32 | 0/9
GFTIDDYAMH | GISWNSGSCLYADSVK | VGRGGGYFDY | 4.56 ND ND | 4.56 | 2/9 (4.74)
GFTFDDYAMH | GISYNSLSIGYADSVK | VGRGGGYFDK | 1.71 1.70 1.37 | 1.60 | 0/9
GFLFDDYAMH | GISRNSGSIGYADSVK | VGRPGGYFDY | ND 3.20 4.71 | 3.95 | 1/9 (3.73)
GFTFDDYTMH | GISWNSGTIGYADSVK | VERGGGYFDY | 4.21 5.50 5.72 | 5.14 | 5/9 (4.78)
GFTFDDYAMH | GISWNSGSIGYLDSVP | VGRGGGYFDF | ND ND 4.99 | 4.99 | 1/9 (5.05)
GFTFDDLAIH | GISWNSGSIGYADSVP | VGRGGGYFDY | ND ND ND | ND | 0/9
GFTFDDYAMH | GISWNSGSIGYASSVQ | VFRGGGYFDY | ND ND ND | ND | 0/9
GFTFDDYAMA | GISWNSGSIGYADSVK | VGRGEGYPDY | ND ND ND | ND | 0/9
GFTFDDYAMH | GYSWNSGEIGYADRVK | VGRGGGYFDY | 4.05 ND ND | 4.05 | 2/9 (3.52)
GFTFDDYANH | GISWNSGSIGYADSVK | VGRGGPYFDY | 3.35 ND ND | 3.35 | 1/9 (4.29)
GFTFDDYAMH | GISWNSGSIGYAWSVK | VGRGGGYFDY | ND ND ND | ND | 3/9 (4.29)
GFTFDDYAPH | GISWNSGSIGYADSVK | VGRGNGYFDV | ND ND ND | ND | 0/9
GFTFDDYAMH | GISWNSGSIWYADSVK | VGRGLGYFDR | ND 5.41 ND | 5.41 | 3/9 (4.56)
GFTFDDYAMH | GISWNSGSIGLADLVK | VGRLGGYFDY | ND ND ND | ND | 0/9
GPTFDIYAMH | SISWNSGSIGYADSVK | VGRGGGYFDY | ND ND ND | ND | 0/9
TFTFDDYAMH | GISWNSGSIAYADSVK | VGRGDGYFDY | ND ND 3.93 | 3.93 | 2/9 (3.63)
GFTFDDYAMH | GHSWNSGSIGYADSVK | VGSGGGYFFY | 3.57 ND ND | 3.57 | 1/9 (3.86)
GFTFDYWAMH | GISWNSGSIGYADSVK | VGRGGGYFDE | ND ND ND | ND | 0/9
GFTFDDLAMH | GISMNSGSIGYADSVP | VGRGGGYFDY | ND ND ND | ND | 0/9
GFTFDDYAMH | GISWNSQSIGYHDSVK | VGRGGGYFDY | 1.36 1.61 1.41 | 1.46 | 0/9
GFTMDDYAMH | GISWNSGLIGWADSVK | VGRGGGYFDY | ND ND ND | ND | 0/9
GHTFDDYAMH | GISWNSGSIGYADSFK | VGRGGGYLDY | ND ND ND | ND | 0/9
GFTFDDYAMA | GISNNSGSIGYADAVK | VGRGGGYFDY | ND 3.86 ND | 3.86 | 2/9 (3.51)
GFTFDDYAMH | GISWNSGSCGYFDSVK | VGRGGAYFDY | 4.86 ND ND | 4.86 | 2/9 (4.06)
GFTFDDYAMH | GISWNSGSIGYIDSVK | VGPGGGYFNY | 3.39 3.95 3.37 | 3.57 | 0/9
GFTFDDYAMH | DIIWNSGSIGYADSVK | VGLGGGYFDY | ND ND ND | ND | 1/9 (4.57)

Top 5 of the variants detected in all replicates, tightest first:

CDR-H1,CDR-H2,CDR-H3,log10 Kd (nM) by replicate,mean log10 Kd (nM),signal with controls
GFTFDRYAMH,GISWNSGSIGYADSVK,VGRGGGNADY,0.63 0.58 -0.08,0.38,4/9 (4.44)
GFTFDDYAMH,GISWNSQSIGYHDSVK,VGRGGGYFDY,1.36 1.61 1.41,1.46,0/9
GFTFDDYAMH,GISYNSLSIGYADSVK,VGRGGGYFDK,1.71 1.70 1.37,1.60,0/9
GFTFDDYAMH,GISWNSGSIGYIDSVK,VGPGGGYFNY,3.39 3.95 3.37,3.57,0/9
TPTFDEYAMH,GISWNSGSIGYADSVK,VGRGGGYFDY,3.63 2.97 4.69,3.76,2/9 (4.72)

Background: pairings of library AAYL51 with three empty control strains gave a value in 21% of cases (median 4.54, 5th percentile 3.26). Values in that range, when seen in few replicates, are hard to tell from nonspecific mating. For each scFv, signals with the empty controls are counted beside the result, with their mean in brackets. In this assay the parent's reference entry averaged 1.86; its copy inside this library read 0.88.

The measurements come from Engelhart et al. 2022 (doi:10.1038/s41597-022-01779-4) through the FLAb antibody collection.